Reference: ChEMBL document CHEMBL1127807 (J Med Chem, 1994)

Amino acid sequences for entries named in this document (tags omitted). A change or cut given only in a name is not applied to a line headed by its entry.
UniProt P41145: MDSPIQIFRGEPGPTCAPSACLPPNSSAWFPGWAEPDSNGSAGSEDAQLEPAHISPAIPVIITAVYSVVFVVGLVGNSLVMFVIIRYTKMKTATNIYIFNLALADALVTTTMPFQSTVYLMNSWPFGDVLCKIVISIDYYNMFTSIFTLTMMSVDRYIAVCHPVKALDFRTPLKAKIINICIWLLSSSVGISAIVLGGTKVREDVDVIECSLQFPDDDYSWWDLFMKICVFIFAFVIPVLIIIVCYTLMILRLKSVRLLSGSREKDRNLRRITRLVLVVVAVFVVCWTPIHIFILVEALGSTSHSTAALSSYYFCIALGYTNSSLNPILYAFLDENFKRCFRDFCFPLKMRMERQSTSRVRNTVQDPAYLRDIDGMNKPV
UniProt P41143: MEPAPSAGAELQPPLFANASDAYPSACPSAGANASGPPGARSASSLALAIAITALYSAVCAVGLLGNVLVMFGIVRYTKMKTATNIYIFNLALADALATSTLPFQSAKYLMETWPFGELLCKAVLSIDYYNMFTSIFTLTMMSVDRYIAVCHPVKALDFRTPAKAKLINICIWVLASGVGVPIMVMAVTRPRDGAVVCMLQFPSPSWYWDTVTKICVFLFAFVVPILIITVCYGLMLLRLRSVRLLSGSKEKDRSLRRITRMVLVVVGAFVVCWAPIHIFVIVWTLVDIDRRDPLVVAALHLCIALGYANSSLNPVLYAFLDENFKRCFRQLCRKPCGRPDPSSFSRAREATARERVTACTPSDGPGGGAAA
UniProt P35372: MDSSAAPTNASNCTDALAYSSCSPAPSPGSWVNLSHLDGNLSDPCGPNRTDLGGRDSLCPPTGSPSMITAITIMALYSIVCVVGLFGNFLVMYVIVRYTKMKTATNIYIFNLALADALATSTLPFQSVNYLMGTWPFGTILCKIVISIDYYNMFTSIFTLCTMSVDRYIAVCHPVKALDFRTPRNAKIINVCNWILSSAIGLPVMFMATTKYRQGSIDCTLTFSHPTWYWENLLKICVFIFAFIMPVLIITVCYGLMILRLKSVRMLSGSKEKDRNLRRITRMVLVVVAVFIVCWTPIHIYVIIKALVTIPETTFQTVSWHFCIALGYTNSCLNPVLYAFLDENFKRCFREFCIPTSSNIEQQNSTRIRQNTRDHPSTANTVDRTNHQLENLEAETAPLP

Target: Opioid receptors; mu/kappa/delta (Homo sapiens, UniProt P41145+P41143+P35372)
Assay: Tested for the binding affinity against the opioid receptor in guinea pig brain using [3H]bremazocine
Set-up: species or system Cavia porcellus
Conditions: target entry is the homologue from another species

## Oc1ccc2c3c1O[C@H]1[C@H](O)CC[C@@]4(O)[C@@H](C2)N(CC2CC2)CC[C@]314 (stereo in doubt; 6)
  IC50: 8.3 nM

## Oc1ccc2c3c1O[C@H]1[C@H](O)CC[C@@]4(O)[C@@H](C2)N(CC2CC2)CC[C@]314 (stereo in doubt; 7)
  IC50: 6 nM
